Reference: publication PMC12388904, “Hypoglycemic Effects of Silphium perfoliatum L. In Vitro and In Vivo and Its Active Composition Identification by UPLC-Triple-TOF-MS/MS” (Pharmaceuticals, 2025)

Amino acid sequences for entries named in this document (tags omitted). A change or cut given only in a name is not applied to a line headed by its entry.
UniProt P23739: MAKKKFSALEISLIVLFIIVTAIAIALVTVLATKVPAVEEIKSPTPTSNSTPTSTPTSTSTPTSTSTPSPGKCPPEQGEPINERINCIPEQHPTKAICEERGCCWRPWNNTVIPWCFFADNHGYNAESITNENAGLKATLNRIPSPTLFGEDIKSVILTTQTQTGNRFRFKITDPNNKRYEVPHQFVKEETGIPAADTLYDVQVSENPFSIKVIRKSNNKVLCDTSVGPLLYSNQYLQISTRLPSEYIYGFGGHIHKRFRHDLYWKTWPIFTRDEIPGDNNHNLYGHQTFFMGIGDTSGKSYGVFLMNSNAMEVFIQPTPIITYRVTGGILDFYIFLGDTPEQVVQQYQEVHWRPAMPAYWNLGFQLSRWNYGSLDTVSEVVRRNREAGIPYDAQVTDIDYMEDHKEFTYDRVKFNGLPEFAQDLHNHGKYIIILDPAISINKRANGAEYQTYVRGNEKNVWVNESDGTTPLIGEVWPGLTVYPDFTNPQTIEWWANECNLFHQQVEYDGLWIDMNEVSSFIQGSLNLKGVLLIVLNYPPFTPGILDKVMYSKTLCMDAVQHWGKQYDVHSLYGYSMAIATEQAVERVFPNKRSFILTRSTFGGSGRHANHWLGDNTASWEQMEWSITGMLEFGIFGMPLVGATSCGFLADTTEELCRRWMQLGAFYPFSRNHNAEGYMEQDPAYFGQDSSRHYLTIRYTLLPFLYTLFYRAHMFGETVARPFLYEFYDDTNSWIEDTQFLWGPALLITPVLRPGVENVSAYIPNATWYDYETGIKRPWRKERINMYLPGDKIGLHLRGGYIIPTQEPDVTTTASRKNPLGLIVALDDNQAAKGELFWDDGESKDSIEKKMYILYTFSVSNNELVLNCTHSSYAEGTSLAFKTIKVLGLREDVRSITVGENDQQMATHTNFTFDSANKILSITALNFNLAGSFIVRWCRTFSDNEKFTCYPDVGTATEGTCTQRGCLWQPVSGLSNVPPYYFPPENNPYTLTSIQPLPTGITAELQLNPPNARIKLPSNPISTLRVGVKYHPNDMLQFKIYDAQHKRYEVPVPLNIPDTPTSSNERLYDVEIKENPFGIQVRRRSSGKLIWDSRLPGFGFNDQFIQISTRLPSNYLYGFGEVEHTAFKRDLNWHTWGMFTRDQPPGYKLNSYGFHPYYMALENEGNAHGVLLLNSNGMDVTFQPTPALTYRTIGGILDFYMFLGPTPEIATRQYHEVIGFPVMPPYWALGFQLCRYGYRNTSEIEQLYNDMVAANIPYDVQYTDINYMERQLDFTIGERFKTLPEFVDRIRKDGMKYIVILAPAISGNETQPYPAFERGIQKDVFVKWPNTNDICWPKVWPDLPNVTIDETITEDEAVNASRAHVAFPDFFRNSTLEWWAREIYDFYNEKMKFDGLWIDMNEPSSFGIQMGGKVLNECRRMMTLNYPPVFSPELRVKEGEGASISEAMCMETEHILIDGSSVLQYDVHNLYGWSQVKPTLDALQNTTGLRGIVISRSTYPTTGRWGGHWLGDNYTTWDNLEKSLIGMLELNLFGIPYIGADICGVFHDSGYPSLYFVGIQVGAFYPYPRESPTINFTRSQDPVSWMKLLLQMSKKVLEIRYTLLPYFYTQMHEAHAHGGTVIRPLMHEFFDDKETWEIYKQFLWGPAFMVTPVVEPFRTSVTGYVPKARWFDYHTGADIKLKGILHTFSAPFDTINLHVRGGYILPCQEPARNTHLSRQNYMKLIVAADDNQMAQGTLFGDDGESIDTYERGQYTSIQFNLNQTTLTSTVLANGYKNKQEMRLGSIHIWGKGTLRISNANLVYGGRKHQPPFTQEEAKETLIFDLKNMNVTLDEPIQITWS

Target: sucrase (Rattus norvegicus, UniProt P23739)
Assay: In vitro sucrase inhibition (rat intestinal mucosa α-glucosidase, glucose assay kit)
Details: sucrose 50 mmol/L, 37 °C, 20 min

**Q.** Which IC50 (IC50 against sucrase, Figure 4) does the source give for `C[C@H]1O[C@H](O[C@H]2[C@H](O)[C@@H](O)[C@@H](O[C@H]3[C@H](O)[C@@H](O)C(O)O[C@@H]3CO)O[C@@H]2CO)[C@H](O)[C@@H](O)[C@@H]1N[C@H]1C=C(CO)[C@@H](O)[C@H](O)[C@H]1O` (some centres unmarked) [acarbose, Acarbose] here?
**A.** 602 nM

**Q.** What about the IC50 (IC50 for sucrase inhibition, Figure 1) of the same molecule?
**A.** 647 nM
